Results: paper PMC4449000

Target: purified HLA-B*57:01 with human β2-microglobulin (human)
Experiment: radioligand binding

Work on radiolabeled … (peptide) yielded a fold increase in bound peptide with abacavir against no drug of under 5 fold and a fold increase in bound peptide with acyclovir against no drug of 2 fold.
